Results published in patent US9340577B2, “HLA binding motifs and peptides and their uses” (priority 1992, dated 2016).
Where two headings read alike, the source gives them in different places.

Key:
Assay in all cases: biochemical
DRB1*0405 = DRB1*0405 (Homo sapiens, UniProt P01903+P01911, A100R/A169T/D86S/F76Y/I96L/K127E/L162R/M171V/N62H/P40V/Q125Y/R42H/S133A/S149N/S66Y/V115G/V209L/W38E); format: binding
DRB1*1302 = DRB1*1302 (Homo sapiens, UniProt P01903+P01911, A100E/A169T/K41T/L162R/M171V/P40S/Q125H/Q178H/Q39Y/Q99D/R42S/S66N/T262R/V115G/W38E/Y61H)
DRB1*0802 = DRB1*0802 (Homo sapiens, UniProt P01903+P01911, A100R/A103L/A169T/F76Y/H45Y/I96F/K41T/L162R/M171V/P40S/Q125H/Q178H/Q39Y/Q99D/R218S/R42G/S66Y/V115G/W38E)
HLA-A*0201 (HLA-A2.1) = HLA-A*0201 (HLA-A2.1) (Homo sapiens, UniProt P04439, D140Y/D185E/D98H/E176V/E277Q/G131W/G231S/I119V/I121R/I166T/I218V/L300P/L318F/N151K/N90K/P208A/P217A/Q86G/Q94H/R138H/R169H/T345S)
A*2902 = A*2902 (Homo sapiens, UniProt P04439, A270S/D101N/D185E/E176V/E277Q/E87Q/F33T/G231S/H175R/I121M/I218V/I322F/K168Q/L300P/L318F/M331R/P208A/P217A/Q86L/T323A/T345S/V100A/V358M); format: binding
A*6801 = A*6801 (Homo sapiens, UniProt P04439, A269V/D185E/E176V/E277Q/E87N/F33Y/G231S/I121M/I166T/I218V/L180W/L300P/L318F/N151K/P208A/P217A/Q86R/R169H/T345S); format: binding
HLA-A11 (A*1101) = HLA-A11 (A*1101) (Homo sapiens, UniProt P04439, A114D/D185E/E176A/F33Y/L180Q/S129P/T187R); format: binding
HLA-A3.2 (A*0301) = HLA-A3.2 (A*0301) (Homo sapiens, UniProt P04439); format: binding
A31 (A*3101) = A31 (A*3101) (Homo sapiens, UniProt P04439, A270S/D185E/E176V/E277Q/F33T/G231S/G80R/H175R/I121M/I218V/I322F/K168Q/L300P/L318F/M331R/P217A/Q94H/R138Q/T323A/T345S/T97I/V358M); format: binding
A*3301 = A*3301 (Homo sapiens, UniProt P04439, A270S/D185E/E176V/E277Q/E87N/F33T/G231S/H175R/I121M/I218V/I322F/K168Q/K210R/L300P/L318F/M331R/P217A/Q86R/Q94H/R138Q/T323A/T345S/T97I/V358M/Y195H); format: binding

Structure (SMILES): CC[C@H](C)[C@H](NC(=O)[C@H](CC(C)C)NC(=O)[C@@H](NC(=O)[C@H](CCC(=O)O)NC(=O)[C@@H](N)CC(N)=O)[C@@H](C)CC)C(=O)N[C@@H](CCCNC(=N)N)C(=O)N[C@@H](CS)C(=O)N[C@H](C(=O)N[C@H](C(=O)N[C@@H](CS)C(=O)N[C@@H](CCC(N)=O)C(=O)N[C@@H](CCCNC(=N)N)C(=O)N1CCC[C@H]1C(=O)N[C@@H](CC(C)C)C(=O)N[C@@H](CS)C(=O)O)[C@@H](C)CC)[C@@H](C)CC [Peptide 85.0031]
- IC50 (DRB1*0405; read-out: Binding affinity DRB1 *0405): 7420 nM

Structure (SMILES): CC[C@H](C)[C@H](NC(=O)[C@H](CC(N)=O)NC(=O)[C@H](CO)NC(=O)[C@@H](NC(=O)[C@@H](NC(=O)[C@H](CC(C)C)NC(=O)[C@H](CC(C)C)NC(=O)[C@@H]1CCCN1C(=O)[C@@H]1CCCN1C(=O)[C@H](CS)NC(=O)[C@H](CCCCN)NC(=O)[C@H](CC(C)C)NC(=O)[C@H](CCC(N)=O)NC(=O)[C@@H](NC(=O)[C@@H](N)CC(C)C)C(C)C)[C@@H](C)CC)[C@@H](C)O)C(=O)O [Peptide 89.0021]
- IC50 (DRB1*0405): 7580 nM

Structure (SMILES): CC[C@H](C)[C@H](NC(=O)[C@H](Cc1c[nH]cn1)NC(=O)[C@H](C)NC(=O)[C@H](Cc1ccc(O)cc1)NC(=O)[C@H](CC(C)C)NC(=O)[C@@H](NC(=O)[C@H](Cc1ccccc1)NC(=O)[C@@H]1CCCN1C(=O)[C@H](CCC(N)=O)NC(=O)[C@@H](NC(=O)[C@H](CC(C)C)NC(=O)[C@@H](NC(=O)[C@H](CCCCN)NC(=O)[C@@H](N)Cc1ccccc1)[C@@H](C)O)[C@@H](C)CC)[C@@H](C)CC)C(=O)N[C@@H](CCC(N)=O)C(=O)O [Peptide 89.0025]
- IC50 (DRB1*1302): 1150 nM

Structure (SMILES): CSCC[C@H](NC(=O)[C@H](CCC(N)=O)NC(=O)[C@H](CCC(N)=O)NC(=O)[C@@H](NC(=O)[C@H](CCC(=O)O)NC(=O)[C@@H](NC(=O)[C@H](CCC(=O)O)NC(=O)[C@@H](NC(=O)[C@@H](N)CC(N)=O)[C@@H](C)O)C(C)C)[C@@H](C)O)C(=O)N[C@H](C(=O)N[C@@H](CCC(N)=O)C(=O)N[C@@H](CCC(N)=O)C(=O)N[C@H](C(=O)N[C@@H](CCC(=O)O)C(=O)N[C@@H](CO)C(=O)O)C(C)C)C(C)C [Peptide 89.0059]
- IC50 (DRB1*1302): 8330 nM

Structure (SMILES): CC[C@H](C)[C@H](NC(=O)[C@H](C)NC(=O)[C@H](CCC(N)=O)NC(=O)[C@H](CC(C)C)NC(=O)[C@H](C)NC(=O)[C@H](CCCCN)NC(=O)[C@@H](N)CC(N)=O)C(=O)N[C@@H](CCC(=O)O)C(=O)N[C@@H](CC(C)C)C(=O)N[C@@H](CCC(N)=O)C(=O)N[C@@H](CC(C)C)C(=O)N[C@H](C(=O)N[C@@H](CC(C)C)C(=O)N[C@@H](CCC(=O)O)C(=O)N[C@H](C(=O)O)[C@@H](C)O)[C@@H](C)O [Peptide 89.0151]
- IC50 (DRB1*0405): 3960 nM
- IC50 (DRB1*0802): 15200 nM

Structure (SMILES): CC[C@H](C)[C@H](NC(=O)[C@H](C)NC(=O)[C@H](CCCCN)NC(=O)[C@@H](N)Cc1c[nH]cn1)C(=O)N[C@@H](CCC(=O)O)C(=O)N[C@@H](CC(C)C)C(=O)N[C@@H](CCC(N)=O)C(=O)N[C@@H](CCSC)C(=O)N[C@@H](C)C(=O)N[C@@H](CC(C)C)C(=O)N[C@@H](CCC(N)=O)C(=O)NCC(=O)N[C@@H](CC(C)C)C(=O)N[C@@H](C)C(=O)N[C@@H](CCC(N)=O)C(=O)O [Peptide 89.0160]
- IC50 (DRB1*1302): 3960 nM

Structure (SMILES): CC(C)C[C@H](NC(=O)[C@H](C)NC(=O)[C@H](CCCCN)NC(=O)[C@H](C)NC(=O)[C@H](CCCCN)NC(=O)[C@H](CO)NC(=O)[C@@H](NC(=O)[C@H](CO)NC(=O)[C@H](CC(C)C)NC(=O)[C@H](C)NC(=O)[C@@H]1CCCN1C(=O)[C@@H](NC(=O)[C@@H](NC(=O)[C@H](CCC(N)=O)NC(=O)[C@@H](N)Cc1c[nH]cn1)C(C)C)C(C)C)C(C)C)C(=O)O [Peptide 89.0169]
- IC50 (DRB1*1302): 881 nM

Structure (SMILES): CC[C@H](C)[C@H](NC(=O)[C@H](C)NC(=O)[C@H](CCC(N)=O)NC(=O)[C@H](CC(C)C)NC(=O)[C@H](C)NC(=O)[C@H](CCCCN)NC(=O)[C@H](C)N)C(=O)N[C@@H](CCC(=O)O)C(=O)N[C@@H](CC(C)C)C(=O)N[C@@H](CCC(N)=O)C(=O)N[C@@H](CCSC)C(=O)N[C@@H](CCSC)C(=O)N[C@@H](CC(C)C)C(=O)N[C@@H](CCC(=O)O)C(=O)N[C@H](C(=O)O)[C@@H](C)O [Peptide 89.0171]
- IC50 (DRB1*1302): 506 nM

Structure (SMILES): CC[C@H](C)[C@H](NC(=O)[C@H](CCCCN)NC(=O)[C@H](CC(=O)O)NC(=O)[C@H](CCC(N)=O)NC(=O)[C@H](CS)NC(=O)[C@@H](NC(=O)[C@H](CC(N)=O)NC(=O)[C@H](CC(C)C)NC(=O)[C@@H](N)CCCNC(=N)N)C(C)C)C(=O)N[C@@H](CC(C)C)C(=O)N[C@H](C(=O)N[C@@H](Cc1c[nH]cn1)C(=O)N[C@@H](Cc1ccc(O)cc1)C(=O)N[C@@H](CCC(=O)O)C(=O)N[C@@H](CC(N)=O)C(=O)O)[C@@H](C)O [Peptide 90.0160]
- IC50 (DRB1*0405): 6710 nM

Structure (SMILES): CC(C)C[C@H](NC(=O)[C@H](CO)NC(=O)[C@H](CC(C)C)NC(=O)[C@@H](N)CO)C(=O)NCC(=O)N[C@@H](Cc1ccccc1)C(=O)N[C@@H](CC(C)C)C(=O)N[C@@H](Cc1ccccc1)C(=O)N[C@@H](CC(C)C)C(=O)N[C@H](C(=O)O)C(C)C [Peptide 1419.52]
- IC50 (HLA-A*0201 (HLA-A2.1)): 3.3 nM

Structure (SMILES): CC(C)C[C@H](NC(=O)[C@@H](NC(=O)[C@H](CC(=O)O)NC(=O)[C@H](CC(C)C)NC(=O)[C@@H](NC(=O)[C@@H](NC(=O)[C@@H]1CCCN1C(=O)[C@H](CC(=O)O)NC(=O)[C@H](CO)NC(=O)[C@@H](N)CCCNC(=N)N)C(C)C)[C@@H](C)O)C(C)C)C(=O)N[C@@H](Cc1ccc(O)cc1)C(=O)O [Peptide 1470.06]
- IC50 (A*2902): > 20000 nM

Structure (SMILES): CC[C@H](C)[C@H](NC(=O)[C@H](CCC(=O)O)NC(=O)[C@H](CC(C)C)NC(=O)[C@H](C)NC(=O)[C@H](CO)NC(=O)[C@@H](NC(=O)[C@@H](N)CC(C)C)[C@@H](C)O)C(=O)N1CCC[C@H]1C(=O)N[C@@H](Cc1ccc(O)cc1)C(=O)O [Peptide 1549.40]
- IC50 (A*2902): 183 nM

Structure (SMILES): CC[C@H](C)[C@H](NC(=O)[C@@H](NC(=O)[C@H](CC(C)C)NC(=O)[C@H](CC(=O)O)NC(=O)[C@@H](NC(=O)[C@@H](NC(=O)[C@H](C)N)[C@@H](C)O)[C@@H](C)O)[C@@H](C)O)C(=O)N[C@H](C(=O)N[C@@H](Cc1ccc(O)cc1)C(=O)O)C(C)C [Peptide 1549.51]
- IC50 (A*2902): 194 nM

Structure (SMILES): CC[C@H](C)[C@H](NC(=O)[C@H](C)NC(=O)[C@@H](NC(=O)[C@@H](NC(=O)[C@H](CC(N)=O)NC(=O)[C@H](CC(C)C)NC(=O)[C@H](Cc1ccccc1)NC(=O)[C@H](CCCCN)NC(=O)[C@@H](NC(=O)[C@H](CCCNC(=N)N)NC(=O)[C@H](CCC(N)=O)NC(=O)[C@H](CCCCN)NC(=O)[C@@H](N)CCC(=O)O)[C@@H](C)O)[C@@H](C)O)C(C)C)C(=O)N1CCC[C@H]1C(=O)N[C@@H](CC(=O)O)C(=O)O [Peptide 1601.19]
- IC50 (DRB1*1302): 257 nM

Structure (SMILES): CC[C@H](C)[C@H](N)C(=O)N[C@@H](CC(C)C)C(=O)N[C@@H](CCCNC(=N)N)C(=O)N[C@@H](CCC(N)=O)C(=O)N[C@@H](CCCNC(=N)N)C(=O)N[C@@H](CCCCN)C(=O)N[C@H](C(=O)N[C@@H](CC(=O)O)C(=O)N[C@@H](CCCNC(=N)N)C(=O)O)[C@@H](C)CC [Peptide 9017.0121]
- IC50 (A*6801): > 20000 nM
- IC50 (HLA-A11 (A*1101)): > 20000 nM
- IC50 (HLA-A3.2 (A*0301)): 7830 nM
- IC50 (A31 (A*3101)): 7.3 nM
- IC50 (A*3301): 26 nM

Structure (SMILES): CC(C)C[C@H](NC(=O)[C@H](Cc1ccccc1)NC(=O)[C@H](Cc1c[nH]cn1)NC(=O)[C@H](CO)NC(=O)[C@H](CC(C)C)NC(=O)[C@H](CC(=O)O)NC(=O)[C@H](Cc1ccccc1)NC(=O)[C@H](C)NC(=O)[C@H](C)N)C(=O)N[C@@H](CCCCN)C(=O)O [Peptide 9017.0190]
- IC50 (A*6801): 2.5 nM
- IC50 (HLA-A11 (A*1101)): 2 nM
- IC50 (HLA-A3.2 (A*0301)): 8.7 nM
- IC50 (A31 (A*3101)): 96 nM
- IC50 (A*3301): 2550 nM

Structure (SMILES): CC[C@H](C)[C@H](NC(=O)[C@H](CCCCN)NC(=O)[C@H](CCCNC(=N)N)NC(=O)[C@H](CCC(N)=O)NC(=O)[C@H](CCCNC(=N)N)NC(=O)[C@H](CC(C)C)NC(=O)[C@@H](NC(=O)[C@@H](N)CCCCN)[C@@H](C)CC)C(=O)N[C@@H](CC(=O)O)C(=O)N[C@@H](CCCNC(=N)N)C(=O)O [Peptide 9017.0246]
- IC50 (A*6801): > 20000 nM
- IC50 (HLA-A11 (A*1101)): 5080 nM
- IC50 (A31 (A*3101)): 166 nM
- IC50 (A*3301): 3740 nM
